The values that follow come from patent publication US20210228560A1 (Centogene IP GmbH, priority 2011, published 2021).

This data set relates to HEK293H cells. The data set is described as follows: Toxic effect on the transfected cells in the GLA[A156V] assay. Format: cell-based. The settings on record: concentration of 80 μM, with DGJ; FIG. 10.

`CN(Cc1cc(Br)cc(Br)c1N)C1CCCCC1` [Bromhexine, 2,4-dibromo-6-{[cyclohexyl(methyl)amino]methyl}aniline]: the “toxic effect on the cells” value is given as “toxic effect”.

For the compound `CN(Cc1cc(C#N)cc(Br)c1N)C1CCCCC1` [SF-55C], the “toxic effect on the cells” value was “toxic effect”.
